What was measured:
[1] = biological target: KRAS G13C binding to BRAF RBD (Homo sapiens (Human), UniProt P01116+P62937, G13C); assay: Ras-Raf disruption/FRET/MOA assay, KRAS G13C; type: biochemical; details: read-out: FRET (K-Ras G13C) IC50
[2] = tested on: K-Ras G12C (NCI-H358 cells); assay: Potency assay: pERK in NCI-H358 cells; type: cell-based, human; details: read-out: H358 pERK (K-Ras G12C) EC50; NCI-H358
[3] = biological target: K-Ras G12C(GMP-PNP) binding to BRAF RBD (Homo sapiens (Human), UniProt P01116+P62937, G12C); assay: Disruption of BRAF RBD interaction with K-Ras (FRET / MOA assay), K-Ras G12C; type: biochemical; details: read-out: FRET (K-Ras G12C) IC50
NCI-H358 (K-Ras G12C) [4] = assay: CellTiter-Glo cell viability assay, NCI-H358; type: cell-based, human; details: read-out: H358 Cell Viability (K-Ras G12C) IC50; 5-day treatment
[5] = biological target: KRAS G12V binding to BRAF RBD (Homo sapiens (Human), UniProt P01116+P62937, G12V); assay: Ras-Raf disruption/FRET/MOA assay, KRAS G12V; type: biochemical; details: read-out: KRAS G12V FRET IC50
[6] = biological target: KRAS G12S binding to BRAF RBD (Homo sapiens (Human), UniProt P01116+P62937, G12S); assay: Ras-Raf disruption/FRET/MOA assay, KRAS G12S; type: biochemical; details: read-out: KRAS G12S FRET IC50
[7] = biological target: KRAS WT binding to BRAF RBD (Homo sapiens (Human), UniProt P01116+P62937); assay: Ras-Raf disruption/FRET/MOA assay, KRAS WT; type: biochemical; details: read-out: KRAS WT FRET IC50
KRAS G12V = KRAS G12V (Homo sapiens (Human), UniProt P01116+P62937, G12V); assay: Ras-Raf disruption/FRET/MOA assay, KRAS G12V; type: biochemical; details: read-out: KRAS G12V FRET IC50
KRAS G12S = KRAS G12S (Homo sapiens (Human), UniProt P01116+P62937, G12S); assay: Ras-Raf disruption/FRET/MOA assay, KRAS G12S; type: biochemical; details: read-out: KRAS G12S FRET IC50
KRAS G13C = KRAS G13C (Homo sapiens (Human), UniProt P01116+P62937, G13C); assay: Ras-Raf disruption/FRET/MOA assay, KRAS G13C; type: biochemical; details: read-out: KRAS G13C FRET IC50
AsPC-1 (K-Ras G12D) [8] = assay: CellTiter-Glo cell viability assay, AsPC-1; type: cell-based, human; details: read-out: AsPC-1 Cell Viability IC50, 5-day treatment
NCI-H358 (K-Ras G12C) [9] = assay: CellTiter-Glo cell viability assay, H358; type: cell-based, human; details: read-out: H358 Cell Viability IC50, 5-day treatment
KRAS Q61H = KRAS Q61H (Homo sapiens (Human), UniProt P01116+P62937, Q61H); assay: Ras-Raf disruption/FRET/MOA assay, KRAS Q61H; type: biochemical; details: read-out: KRAS Q61H FRET IC50
AsPC-1 (K-Ras G12D) [10] = assay: Potency assay: pERK; type: cell-based, human; details: read-out: pERK EC50; AsPC-1 KRAS G12D
KRAS WT = KRAS WT (Homo sapiens (Human), UniProt P01116+P62937); assay: Ras-Raf disruption/FRET/MOA assay, KRAS WT; type: biochemical; details: read-out: KRAS WT FRET IC50
KRAS G13D = KRAS G13D (Homo sapiens (Human), UniProt P01116+P62937, G13D); assay: Ras-Raf disruption/FRET/MOA assay, KRAS G13D; type: biochemical; details: read-out: KRAS G13D FRET IC50
KRAS G12D = KRAS G12D (Homo sapiens (Human), UniProt P01116+P62937, G12D); assay: Ras-Raf disruption/FRET/MOA assay, KRAS G12D; type: biochemical; details: read-out: KRAS G12D FRET IC50
NRAS WT = NRAS WT (Homo sapiens (Human), UniProt P01111+P62937); assay: Ras-Raf disruption/FRET/MOA assay, NRAS WT; type: biochemical; details: read-out: NRAS WT FRET IC50

Chains of the proteins cited; added tags and fusions are not shown. Lines headed by an entry give the natural chain unless they say otherwise; changes in a name come on top. A line that says so, or that is headed by a name, gives the form on record, which may keep a tag or linker. Residues count along the entry.
UniProt P01116, 1-164 with tags or gaps limits assumed: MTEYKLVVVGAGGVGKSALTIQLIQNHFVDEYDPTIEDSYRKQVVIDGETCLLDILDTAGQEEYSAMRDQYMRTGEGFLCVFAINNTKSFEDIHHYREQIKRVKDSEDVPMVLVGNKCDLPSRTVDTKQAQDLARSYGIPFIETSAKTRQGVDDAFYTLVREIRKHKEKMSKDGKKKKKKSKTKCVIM
UniProt P01116, 1-164 with tags or gaps G12S limits assumed: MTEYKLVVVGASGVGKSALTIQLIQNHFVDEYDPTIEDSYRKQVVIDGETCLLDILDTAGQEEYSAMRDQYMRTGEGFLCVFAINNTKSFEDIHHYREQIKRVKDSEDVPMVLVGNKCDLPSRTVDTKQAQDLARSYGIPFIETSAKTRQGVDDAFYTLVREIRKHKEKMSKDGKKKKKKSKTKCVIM
UniProt P01116, 1-164 with tags or gaps G12V limits assumed: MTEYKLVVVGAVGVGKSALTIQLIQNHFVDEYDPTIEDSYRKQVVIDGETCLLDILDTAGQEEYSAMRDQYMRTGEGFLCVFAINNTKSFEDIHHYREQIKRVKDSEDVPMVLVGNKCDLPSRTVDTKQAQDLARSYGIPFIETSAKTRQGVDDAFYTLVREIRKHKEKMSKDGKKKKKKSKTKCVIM
UniProt P01116, 1-164 with tags or gaps G13C limits assumed: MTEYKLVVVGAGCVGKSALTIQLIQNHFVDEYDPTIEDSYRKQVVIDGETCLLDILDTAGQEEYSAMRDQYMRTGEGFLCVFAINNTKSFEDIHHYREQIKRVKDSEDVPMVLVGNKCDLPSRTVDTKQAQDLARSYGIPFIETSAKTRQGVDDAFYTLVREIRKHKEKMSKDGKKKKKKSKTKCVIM
UniProt P01116, 1-164 with tags or gaps G12D limits assumed: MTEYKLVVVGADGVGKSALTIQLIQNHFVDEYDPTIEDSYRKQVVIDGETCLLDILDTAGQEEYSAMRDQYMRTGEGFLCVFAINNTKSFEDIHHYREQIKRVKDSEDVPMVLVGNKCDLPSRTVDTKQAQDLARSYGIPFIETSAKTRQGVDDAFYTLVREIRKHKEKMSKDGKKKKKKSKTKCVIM
UniProt P01116, 1-164 with tags or gaps G13D limits assumed: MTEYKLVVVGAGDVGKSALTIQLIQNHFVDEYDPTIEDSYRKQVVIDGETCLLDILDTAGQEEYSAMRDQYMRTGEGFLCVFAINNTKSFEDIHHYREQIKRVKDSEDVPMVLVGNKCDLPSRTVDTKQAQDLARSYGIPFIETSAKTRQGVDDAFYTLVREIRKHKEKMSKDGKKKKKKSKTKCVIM
UniProt P01116, 1-164 with tags or gaps Q61H limits assumed: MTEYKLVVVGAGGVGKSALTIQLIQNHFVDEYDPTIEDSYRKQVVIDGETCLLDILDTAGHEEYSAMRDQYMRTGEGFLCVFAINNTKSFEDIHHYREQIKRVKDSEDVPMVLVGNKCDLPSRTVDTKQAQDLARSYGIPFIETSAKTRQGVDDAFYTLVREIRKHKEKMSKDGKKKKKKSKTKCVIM
UniProt P01116, 1-164 with tags or gaps G12C limits assumed: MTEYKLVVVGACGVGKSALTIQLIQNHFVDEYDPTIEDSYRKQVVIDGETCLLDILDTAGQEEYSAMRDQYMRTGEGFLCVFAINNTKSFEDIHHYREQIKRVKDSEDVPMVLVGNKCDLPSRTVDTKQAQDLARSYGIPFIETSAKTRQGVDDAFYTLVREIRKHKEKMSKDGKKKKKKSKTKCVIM
UniProt P62937, whole entry: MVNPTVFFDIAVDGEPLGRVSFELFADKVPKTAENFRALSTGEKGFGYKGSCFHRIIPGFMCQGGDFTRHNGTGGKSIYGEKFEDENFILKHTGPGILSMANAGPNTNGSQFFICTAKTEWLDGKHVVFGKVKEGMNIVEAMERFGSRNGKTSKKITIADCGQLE
UniProt P01111, whole entry: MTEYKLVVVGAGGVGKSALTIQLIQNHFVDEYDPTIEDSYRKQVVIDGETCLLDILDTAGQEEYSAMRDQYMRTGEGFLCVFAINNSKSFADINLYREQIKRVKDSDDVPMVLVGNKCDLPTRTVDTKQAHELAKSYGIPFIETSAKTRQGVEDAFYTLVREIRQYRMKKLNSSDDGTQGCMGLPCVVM

Compound | IC50 [1] | EC50 [2] | IC50 [3] | IC50 (NCI-H358 (K-Ras G12C) [4]) | IC50 [5] | IC50 [6] | IC50 [7] | IC50 (KRAS G12V) | IC50 (KRAS G12S) | IC50 (KRAS G13C) | IC50 (AsPC-1 (K-Ras G12D) [8]) | IC50 (NCI-H358 (K-Ras G12C) [9]) | IC50 (KRAS Q61H) | EC50 (AsPC-1 (K-Ras G12D) [10]) | IC50 (KRAS WT) | IC50 (KRAS G13D) | IC50 (KRAS G12D) | IC50 (NRAS WT)
C=CC(=O)N1CC[C@H](C(=O)N(C)[C@H](C(=O)N[C@H]2Cc3cc(O)cc(c3)-c3ccc4c(c3)c(c(-c3ccc(N5CCN(C)CC5)nc3)n4CC)CC(C)(C)COC(=O)[C@@H]3CCCN(N3)C2=O)C(C)C)C1 [A89a] | 820 nM | 3 nM | 9 nM | 0.8 nM | – | – | – | – | – | – | – | – | – | – | – | – | – | –
C=CC(=O)N1CC[C@H](C(=O)N(C)[C@H](C(=O)N[C@H]2Cc3cc(O)cc(c3)-c3ccc4c(c3)c(c(-c3cnccc3[C@H](C)OC)n4CC)CC(C)(C)COC(=O)[C@@H]3CCCN(N3)C2=O)C(C)C)C1 [Compound A76] | – | – | – | – | 10 to 100 nM | 10 to 100 nM | 10 to 100 nM | – | – | – | – | – | – | – | – | – | – | –
C=CC(=O)N1CC[C@H](C(=O)N(C)[C@H](C(=O)N[C@H]2Cc3cc(O)cc(c3)-c3ccc4c(c3)c(c(-c3cccnc3[C@H](C)OC)n4CC)CC(C)(C)COC(=O)[C@@H]3CCCN(N3)C2=O)C(C)C)C1 | – | – | – | – | 10 to 100 nM | 10 to 100 nM | 10 to 100 nM | – | – | – | – | – | – | – | – | – | – | –
CCn1c(-c2cccnc2[C@H](C)OC)c2c3cc(ccc31)-c1cc(O)cc(c1)C[C@H](NC(=O)[C@H](C(C)C)N(C)C(=O)CN(C)C(=O)[C@@H]1CN1CCCOC(C)=O)C(=O)N1CCC[C@H](N1)C(=O)OCC(C)(C)C2 (some centres unmarked) | – | – | – | – | – | – | – | 10 to 100 nM | 10 to 100 nM | 10 to 100 nM | 100 to 1000 nM | < 10 nM | 10 to 100 nM | < 5000 nM | 10 to 100 nM | 100 to 1000 nM | 10 to 100 nM | 10 to 100 nM
CCn1c(-c2cccnc2[C@H](C)OC)c2c3cc(ccc31)-c1cc(O)cc(c1)C[C@H](NC(=O)[C@H](C(C)C)N(C)C(=O)CN(C)C(=O)[C@H]1CN1CCCOC(C)=O)C(=O)N1CCC[C@H](N1)C(=O)OCC(C)(C)C2 (some centres unmarked) | – | – | – | – | – | – | – | 100 to 1000 nM | 10 to 100 nM | 10 to 100 nM | 100 to 1000 nM | < 10 nM | 10 to 100 nM | < 5000 nM | 100 to 1000 nM | 100 to 1000 nM | 100 to 1000 nM | 100 to 1000 nM
CCn1c(-c2cccnc2[C@H](C)OC)c2c3cc(ccc31)-c1cc(O)cc(c1)C[C@H](NC(=O)[C@H](C1CCCC1)N(C)C(=O)CN(C)C(=O)[C@H]1[C@@H](C3CC3)N1CCCOC)C(=O)N1CCC[C@H](N1)C(=O)OCC(C)(C)C2 (some centres unmarked) | – | – | – | – | – | – | – | 10 to 100 nM | 10 to 100 nM | 10 to 100 nM | 10 to 100 nM | 10 to 100 nM | 10 to 100 nM | < 5000 nM | 10 to 100 nM | 100 to 1000 nM | 100 to 1000 nM | 10 to 100 nM
C=CC(=O)N1CC[C@H](C(=O)N(C)[C@H](C(=O)N[C@H]2Cc3cc(O)cc(c3)-c3ccc4c(c3)c(c(-c3ccc(N5CCN(C)CC5)nc3)n4CC)CC(C)(C)COC(=O)[C@@H]3CCCN(N3)C2=O)C(C)C)C1 [A89b] | 580 nM | 28 nM | 34 nM | 11 nM | – | – | – | – | – | – | – | – | – | – | – | – | – | –

Source: US20250195521A1 (Revolution Medicines, Inc., priority 2020, published 2025)
